Consider seven compounds from ChEMBL document CHEMBL1137608, “Design of a potent reactivator of tabun-inhibited acetylcholinesterase--synthesis and evaluation of (E)-1-(4-carbamoylpyridinium)-4-(4-hydroxyiminomethylpyridinium)-but-2-ene dibromide (K203)” (2007).

The structures appear in SMILES notation.

Experiment [1] deals with T1, Acetylcholinesterase (Rattus norvegicus) (UniProt P37136).
T1 sequence (whole entry): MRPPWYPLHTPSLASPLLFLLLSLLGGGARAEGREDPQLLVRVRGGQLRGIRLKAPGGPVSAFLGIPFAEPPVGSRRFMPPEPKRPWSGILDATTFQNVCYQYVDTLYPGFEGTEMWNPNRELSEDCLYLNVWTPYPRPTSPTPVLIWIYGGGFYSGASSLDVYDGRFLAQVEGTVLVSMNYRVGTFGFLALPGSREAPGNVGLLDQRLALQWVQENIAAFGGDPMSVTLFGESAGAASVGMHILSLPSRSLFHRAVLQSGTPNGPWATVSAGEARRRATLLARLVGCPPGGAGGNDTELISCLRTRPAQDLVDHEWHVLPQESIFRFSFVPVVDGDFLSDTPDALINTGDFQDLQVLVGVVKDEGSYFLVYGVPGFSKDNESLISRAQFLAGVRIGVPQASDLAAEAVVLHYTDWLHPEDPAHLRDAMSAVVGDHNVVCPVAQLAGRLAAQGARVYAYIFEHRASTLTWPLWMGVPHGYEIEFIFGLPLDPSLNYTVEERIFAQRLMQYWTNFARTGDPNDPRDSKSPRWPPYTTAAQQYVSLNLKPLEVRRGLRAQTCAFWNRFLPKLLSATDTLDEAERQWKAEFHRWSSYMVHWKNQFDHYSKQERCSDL
Put plainly: Binding affinity to tabun-inhibited AChE.

In experiment [2] the target is T1, Acetylcholinesterase (Rattus norvegicus). In words: Reactivation activity of tabun-inhibited AChE in rat brain at 1 mM after 30 mins. The arrangement: scale not given: the % may be the effect or the level left.
Experiment [3] shares this target. Put plainly: Reactivation activity of tabun-inhibited AChE in rat brain at 100 uM after 30 mins. On the set-up: scale not given: the % may be the effect or the level left.
For experiment [4] the target is unchanged. In words: Reactivation activity of tabun-inhibited AChE in rat brain at 10 uM after 30 mins. The arrangement: scale not given: the % may be the effect or the level left.

Regarding `O/N=C/c1cc[n+](CCC[n+]2ccc(/C=N/O)cc2)cc1`, in experiment [1], the KR worked out at 460 µM.

In turn, `O/N=C\c1cc[n+](C/C=C/C[n+]2ccc(/C=N/O)cc2)cc1` displayed a KR in experiment [1] of 19 µM.

Turning to `O/N=C/c1cc[n+](CCCC[n+]2ccc(/C=N/O)cc2)cc1`, the Activity in experiment [2] was 46%; in experiment [3] it was 38%; in experiment [4], 15%. Besides, the KR in experiment [1] is 29 µM.

In experiment [1], `NC(=O)c1cc[n+](COC[n+]2ccccc2/C=N/O)cc1` returned a KR of 6 µM. The compound also showed an Activity in experiment [3] of 6%.

On to `NC(=O)c1cc[n+](CCC[n+]2ccc(/C=N/O)cc2)cc1`, for which the Activity amounted to 11% in experiment [2], 11% in experiment [3] and 1% in experiment [4]. The compound further gave a KR in experiment [1] of 54 µM.

Compound `NC(=O)c1cc[n+](C/C=C/C[n+]2ccc(/C=N/O)cc2)cc1` displayed a KR in experiment [1] of 6 µM.

Compound `C[n+]1ccccc1C=NO` showed a KR in experiment [1] of 575 µM.
